High-throughput results (PubChem)
Rango-impB inh – qHTS Assay for Inhibitors of Rango (Ran-regulated importin-beta cargo) - Importin beta complex formation. Rango CFP/YFP FRET sensor + importin beta, 45 min. Potency, µM (highest dose often 92.2 µM). 0.031% of 340,000 active; also: nearly all actives have a fitted effect of over 15% in size
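FRET biosensor Rango (snurportin 1 IBB between N-terminal EYFP and C-terminal Cerulean), 50 nM in PBS/1 mM DTT/0.02% Tween-20/0.1% BSA, preincubated 5 min RT with compound; 0.125 microM importin beta added, 45 min RT, CFP/YFP FRET ratio read.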
DRD3 antagonist – qHTS of D3 Dopamine Receptor Antagonist: qHTS; D3R cells, DiscoveRx beta-arrestin luminescence, antagonist mode; hits give low values; max response, negative = inhibition, %; D(3) dopamine receptor (Homo sapiens), P35462; 2.5% of 360,000 active; in the data active = max response below about -50%; inconclusive = no clear call, values can overlap the other calls
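Cells plated overnight at 1500 cells/well, then exposed to library compounds with dopamine controls for 90 minutes at 37 degrees C. DiscoveRx reagent added for 30–60 minutes at room temperature; luminescence read, quantitative HTS format.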
D3 ag – qHTS of D3 Dopamine Receptor Agonist: qHTS | D3R DiscoveRx beta-arrestin cells, luminescence, 90 min | 0.58% of 410,000 active | max activation, %; in the data active = max activation above about 30%
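Agonist-mode cell screen: cells plated at 1500/well and incubated overnight at 37 °C, then exposed to library compounds for 90 min at 37 °C. Detection reagent was added for 30–60 min at room temperature, and luminescence was read.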
TSG101-PTAP inh – qHTS Assay for Iinhibitors of HIV-1 Budding by Blocking the Interaction of PTAP/TSG101; Tumor susceptibility gene 101 protein (Homo sapiens), Q99816; 340,000 tested, under 10 active; Fluorescence polarization, FITC-PTAP peptide / Tsg101 binding; Potency, µM (doses to about 115 µM), actives largely listed as inhibitors; AID 493005, 2010; active = well fitted inhibition curve with a large enough effect in the main read-out, with a control signal flat, not every such curve was filed as active; inconclusive = small, poorly fitted or top-dose-only effect, or effect the other way, or a change in a side signal; inactive = no such curve, though single readings can be large or run the other way
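FP read-out: FITC-PTAP peptide, 50 nM final, binding Tsg101 binding domain, 10 uM final; 20 min, r.t.; 10 mM HEPES pH 7.5, 0.15 M NaCl, 0.01% Tween 20, 3 mM EDTA, 0.1 mM TCEP.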
MmCpn inh – Inhibitors of TCP-1 ring complex (TRiC) of Methanococcus maripaludis (MmCpn): qHTS | Chaperonin Mm-Cpn (Methanococcus maripaludis) | purified Mm-Cpn ATPase, ADP Transcreener TR-FRET | Potency, µM (highest dose often 76.9 µM), usual class: inhibitors | 0.031% of 330,000 active; active = well fitted inhibition curve with a large enough effect; inconclusive = small, poorly fitted or top-dose-only effect; also: nearly all actives have a fitted effect of over 80% in size
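Compound-treated chaperonin, 25 nM final, turns over 10 uM ATP at 37°C for 30 min following a 10 min preincubation; ADP generated competes with ADP-d2 for Eu-cryptate antibody, lowering FRET.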
Rango dissoc inh – qHTS Assay for Inhibitors of RanGTP induced Rango (Ran-regulated importin-beta cargo) - Importin beta complex dissociation; Potency, µM (series often up to 46.1 µM); 0.071% of 340,000 active; Biochemical FRET Rango-importin beta, RanGTP-induced dissociation; Snurportin-1 (Homo sapiens) + GTP-binding nuclear protein Ran (Homo sapiens) + Importin …; also: nearly all actives have a fitted effect of over 45% in size
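Compounds sat 5 min at room temperature with 0.1 uM Rango biosensor plus 0.25 uM importin beta, then FRET pre-read. RanGTP-RCC1 (0.6 uM Ran, 2mM GTP, 0.2 uM RCC1) added for 45 min, and the CFP/YFP post-read measured blocked complex dissociation.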
Hits are given with their value. Rows were chosen to be rich in hits. Some 2.9% of all compounds tested hit in one or more screens of this group. Unless noted, calls follow the shape of the full dose curve.

By UniProt entry, the sequences of proteins in these tests, tags left out.
D(3) dopamine receptor (Homo sapiens), P35462, UniProt P35462, whole entry, looked up: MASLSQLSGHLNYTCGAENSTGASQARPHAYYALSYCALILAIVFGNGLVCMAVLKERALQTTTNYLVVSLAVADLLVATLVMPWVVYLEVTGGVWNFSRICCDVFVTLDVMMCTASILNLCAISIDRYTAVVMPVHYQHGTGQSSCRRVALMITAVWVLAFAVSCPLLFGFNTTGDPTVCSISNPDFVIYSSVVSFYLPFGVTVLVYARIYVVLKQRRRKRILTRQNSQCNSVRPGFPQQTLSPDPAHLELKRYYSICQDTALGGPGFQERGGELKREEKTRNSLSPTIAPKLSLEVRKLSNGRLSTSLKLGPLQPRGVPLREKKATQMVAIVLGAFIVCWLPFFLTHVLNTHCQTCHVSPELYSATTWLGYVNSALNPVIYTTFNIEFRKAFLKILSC

How did COc1ccc(C(O)c2nc(-c3cccc(F)c3)cs2)cc1 (stereo not given) do in these assays?
DRD3 antagonist: inactive; D3 ag: inactive

How did OC(c1ccccc1)c1nc(-c2cccc(F)c2)cs1 (stereo not given) do in these assays?
DRD3 antagonist: -55.4; D3 ag: inactive

How did COc1ccc(C(O)c2nc(-c3ccccc3C)cs2)cc1 (stereo not given) do in these assays?
DRD3 antagonist: -94.6; D3 ag: inactive

Results for CC1CCCN(C(=O)c2ccc(CSc3nc4ccncc4n3Cc3ccccc3)cc2)C1 (stereo not given) ?
D3 ag: inactive

Results for Cc1cccc2c1-c1sc(C(=O)NCCc3ccc(Cl)cc3)cc1CO2 ?
D3 ag: inactive

What do the screens show for `CCCCCCCCCCCCCCCC[N+](C)(C)CCN(Cc1ccc(OC)cc1)c1ncccn1`?
Rango-impB inh: 65.1µM; DRD3 antagonist: -55.0; D3 ag: inactive; TSG101-PTAP inh: inactive; MmCpn inh: inactive; Rango dissoc inh: inactive

What do the screens show for `CC1CCCCN1C(=O)CN1CCC(c2nc3ccc(Cl)cc3[nH]2)CC1` (stereo not given)?
Rango-impB inh: inactive; DRD3 antagonist: inactive; D3 ag: inactive; TSG101-PTAP inh: inactive; MmCpn inh: inactive; Rango dissoc inh: inactive

Results for Clc1ccc2nc(C3CCN(Cc4ccccc4)CC3)[nH]c2c1 ?
Rango-impB inh: inactive; DRD3 antagonist: -86.8; D3 ag: inactive; TSG101-PTAP inh: inactive; MmCpn inh: inactive; Rango dissoc inh: inactive

What do the screens show for `COc1ccc(-c2cc(C3CCN(c4cc(Cl)nc(N)n4)CC3)[nH]n2)cc1`?
Rango-impB inh: inactive; DRD3 antagonist: inactive; D3 ag: 37.5; TSG101-PTAP inh: inactive; MmCpn inh: inactive; Rango dissoc inh: inactive

How did Cc1ccc(CN2CCC(c3nc4ccc(Cl)cc4[nH]3)CC2)cc1 do in these assays?
Rango-impB inh: inactive; DRD3 antagonist: -93.1; D3 ag: inactive; TSG101-PTAP inh: inactive; MmCpn inh: inactive; Rango dissoc inh: inactive

How did O=C(c1cccc(Cl)c1)N1CCC(c2nc3ccccc3[nH]2)CC1 do in these assays?
Rango-impB inh: inactive; DRD3 antagonist: inactive; D3 ag: inactive; TSG101-PTAP inh: inactive; MmCpn inh: inactive; Rango dissoc inh: inactive

What do the screens show for `Cc1ccc(CN2CCC(c3cc(-c4ccc(Cl)cc4)n[nH]3)CC2)cc1`?
Rango-impB inh: inactive; DRD3 antagonist: -91.3; D3 ag: inactive; TSG101-PTAP inh: inactive; MmCpn inh: inactive; Rango dissoc inh: inactive

How did COc1ccccc1NC(=S)NNC(=O)c1nn(C)c(C)c1Cl do in these assays?
Rango-impB inh: inactive; DRD3 antagonist: -68.8; D3 ag: inactive; TSG101-PTAP inh: inactive; MmCpn inh: inactive; Rango dissoc inh: inactive

Results for COc1ccccc1NC(=S)NC1CCCCCCCCCCC1 ?
Rango-impB inh: inconclusive; DRD3 antagonist: -79.4; D3 ag: inactive; TSG101-PTAP inh: inactive; MmCpn inh: inactive; Rango dissoc inh: inactive

What do the screens show for `COc1ccccc1NC(=S)NNC(=O)c1nn(C)c(C)c1Br`?
Rango-impB inh: inactive; DRD3 antagonist: inactive; D3 ag: inactive; TSG101-PTAP inh: inactive; MmCpn inh: inactive; Rango dissoc inh: inactive

Results for COc1ccccc1NC(=S)NNC(=O)c1ccc(O)cc1 ?
Rango-impB inh: inactive; DRD3 antagonist: -82.7; D3 ag: inactive; TSG101-PTAP inh: inactive; MmCpn inh: inactive; Rango dissoc inh: inactive

How did COc1ccccc1C(=O)NNC(=O)c1ccc(O)cc1 do in these assays?
DRD3 antagonist: inactive; D3 ag: inactive

Results for Cc1cc(C)cc(NC(=O)Cn2c(=O)n(C(C)C)c(=O)c3oc4ccccc4c32)c1 ?
D3 ag: inactive

Results for Cc1cccc(Cc2c(C)nc3nc(SCC(=O)NCc4ccccc4)nn3c2C)c1 ?
D3 ag: inactive

How did CC(=O)Nc1nonc1-c1nnc(SCc2ccccc2)n1C do in these assays?
D3 ag: inactive

What do the screens show for `CCCC(CCC)C(=O)Nc1cccc(-c2cn3cccnc3n2)c1`?
D3 ag: inactive

Results for CCOc1cc(C(=O)Nc2ccc3c(c2)n(C)c(=O)c(=O)n3C)cc(OCC)c1OCC ?
D3 ag: inactive

Results for CCOc1cc2c(c3c1C(c1ccccc1)N(S(=O)(=O)c1ccc(C)cc1)C3)C(=O)C=CC2=O (stereo not given) ?
DRD3 antagonist: -114.6; D3 ag: inactive

How did COc1cc(/C=N/n2c(=S)[nH]nc(C)c2=O)cc([N+](=O)[O-])c1O do in these assays?
Rango-impB inh: inactive; DRD3 antagonist: inactive; D3 ag: inactive; TSG101-PTAP inh: inactive; MmCpn inh: inactive; Rango dissoc inh: inactive

How did CCc1n[nH]c(=S)n1/N=C/c1cc(OC)cc([N+](=O)[O-])c1O do in these assays?
Rango-impB inh: inactive; DRD3 antagonist: -94.2; D3 ag: inactive; TSG101-PTAP inh: inactive; MmCpn inh: inactive; Rango dissoc inh: inactive

How did CCOC(=O)c1c(/N=C/c2cc([N+](=O)[O-])ccc2O)sc(C)c1C do in these assays?
Rango-impB inh: inactive; DRD3 antagonist: inactive; D3 ag: inactive; TSG101-PTAP inh: inactive; MmCpn inh: inactive; Rango dissoc inh: inactive

How did CCOC(=O)c1c(/N=C/c2cc(OC)cc([N+](=O)[O-])c2O)sc(C)c1C do in these assays?
Rango-impB inh: inconclusive; DRD3 antagonist: -71.0; D3 ag: inactive; TSG101-PTAP inh: inactive; MmCpn inh: inactive; Rango dissoc inh: inactive

What do the screens show for `CCCCn1c(-c2cccc(Br)c2)nc2cc3[nH]c(=O)c(C(C)C)nc3cc21`?
Rango-impB inh: inconclusive; DRD3 antagonist: inactive; D3 ag: 62.5; TSG101-PTAP inh: inactive; MmCpn inh: inactive; Rango dissoc inh: inactive

How did CCCCn1c(-c2cccnc2)nc2cc3[nH]c(=O)c(C(C)C)nc3cc21 do in these assays?
Rango-impB inh: inconclusive; DRD3 antagonist: inactive; D3 ag: inactive; TSG101-PTAP inh: inactive; MmCpn inh: inactive; Rango dissoc inh: inactive

How did Cc1cccc(NC(=S)NC2CC3CCCC(C2)N3Cc2ccco2)c1 (stereo not given) do in these assays?
Rango-impB inh: inconclusive; DRD3 antagonist: -60.8; D3 ag: inactive; TSG101-PTAP inh: inactive; MmCpn inh: inactive; Rango dissoc inh: inactive
